# Laboratory results published in US20040166058A1, “Ethylenedicysteine (EC)-drug conjugates, compositions and methods for tissue specific disease imaging” (Board of Regents, The University of Texas System, priority 2002, published 2004).
# System: DiFi cells
# Experiment: Cell viability (MTT) assay in DiFi cells
# Format: cell-based
# Conditions: compared with untreated control cells
# Method: Briefly, DiFi cells are known to undergo apoptosis when they are exposed to C225 in cell culture. Cells were seeded onto 24-well culture plates. Cell viability was assayed by adding 50 ul of 10 mg/ml MTT (3-[4,5-dimethylthiazol-2-yl]-2,5-diphenyltetrazolium bromide) (Sigma) into 0.5 ml of culture medium and the cells were incubated for 3 h at a 37° C. in a CO2 incubator, followed by cell lysis with buffer containing 20% SDS in dimethyl formamide/H2O, pH 4.7, at 37° C. for more than 6 h. Cell viability was then determined by measuring the optical absorbance of cell lysate at a wavelength of 595 nm and normalizing the value with the corresponding untreated cells.
substance,measurement,value
EC-C225,Cell viability / cell proliferation,biologically active in inducing cell death
